Reference: patent publication US20230107277A1, “SUBSTITUTED PYRIDAZINE COMPOUND” (Astellas Pharma Inc., priority 2020, published 2023)

What was measured:
[1] = test system: α-synuclein fiber-induced neuroinflammation model; details: mouse, in vivo
[2] = test system: IL-1β produced in the blood; details: mice, 3 mg/kg oral, blood collected 1 hour and 6 hours after administration (FIG. 3)
[3] = test system: Cuprizone-induced neuroinflammation model; details: mouse, in vivo

**Q.** With `Cc1c(N[C@@H]2CCCC[C@H]2O)nnc(-c2ccc(C(F)(F)F)cc2O)c1C` [Example 63, 2-(6-{[(1R,2R)-2-hydroxycyclohexyl]amino}-4,5-dimethylpyridazin-3-yl)-5-(trifluoromethyl)phenol] as the molecule, how does the “number of falls in hanging wire test” value [1] read?
**A.** significantly reduced the number of falls

**Q.** What about the “amount of IL-1β produced in the blood” value [2] of the same molecule?
**A.** decreased the amount of IL-1β produced

**Q.** And the “time to fall in hanging wire test” value [3]?
**A.** significantly prolonged the time to fall
